Measured values: US6949581B2, “Water-soluble mono-PEGylated tetrapyrrole derivatives for photodynamic therapy and method of production” (CeramOptec Industries, Inc., priority 2003, dated 2005)

Tested on: HeLa (human cervix carcinoma cells)
Assay type: cell-based
Description: To determine dark toxicity of the water-soluble derivative (35) and water-soluble salt of pheophorbide a (5) with N-methyl-D-glucamine (prepared according to U.S. application Ser. […] The cells were washed with pure DMEM and treated with 10% formalin for 15 minutes at room temperature. The cells were twice washed with water, incubated for 15 minutes with 0.1% solution of crystal violet (50 μl/well), then washed with water and treated with ethanol (100 μl/well). Optical densities of ethanol solutions formed were determined with Specord 100 (Analytik Jena AG, Germany) spectrophotometer at 594 nm to monitor cell survival. Values are expressed as percentages of non-incubated controls. For each incubation concentration eight experiments were performed.

In the case of “salt of pheophorbide a (5) with N-methyl-D-glucamine”, the “IC50 dark toxicity (cytotoxicity)” value is reported as 20 µg/mL and the “IC80 dark toxicity (cytotoxicity)” value is reported as 100 µg/mL.
